Experimental data taken from ChEMBL document CHEMBL3112477, “Rat intestinal sucrase inhibition of constituents from the roots of Rosa rugosa Thunb” (Bioorg Med Chem Lett, 2014).

Sequences of proteins named here, by UniProt entry; tags and fusion partners are left off. Residues count along the entry.
UniProt P23739, 1014-1841 limits assumed: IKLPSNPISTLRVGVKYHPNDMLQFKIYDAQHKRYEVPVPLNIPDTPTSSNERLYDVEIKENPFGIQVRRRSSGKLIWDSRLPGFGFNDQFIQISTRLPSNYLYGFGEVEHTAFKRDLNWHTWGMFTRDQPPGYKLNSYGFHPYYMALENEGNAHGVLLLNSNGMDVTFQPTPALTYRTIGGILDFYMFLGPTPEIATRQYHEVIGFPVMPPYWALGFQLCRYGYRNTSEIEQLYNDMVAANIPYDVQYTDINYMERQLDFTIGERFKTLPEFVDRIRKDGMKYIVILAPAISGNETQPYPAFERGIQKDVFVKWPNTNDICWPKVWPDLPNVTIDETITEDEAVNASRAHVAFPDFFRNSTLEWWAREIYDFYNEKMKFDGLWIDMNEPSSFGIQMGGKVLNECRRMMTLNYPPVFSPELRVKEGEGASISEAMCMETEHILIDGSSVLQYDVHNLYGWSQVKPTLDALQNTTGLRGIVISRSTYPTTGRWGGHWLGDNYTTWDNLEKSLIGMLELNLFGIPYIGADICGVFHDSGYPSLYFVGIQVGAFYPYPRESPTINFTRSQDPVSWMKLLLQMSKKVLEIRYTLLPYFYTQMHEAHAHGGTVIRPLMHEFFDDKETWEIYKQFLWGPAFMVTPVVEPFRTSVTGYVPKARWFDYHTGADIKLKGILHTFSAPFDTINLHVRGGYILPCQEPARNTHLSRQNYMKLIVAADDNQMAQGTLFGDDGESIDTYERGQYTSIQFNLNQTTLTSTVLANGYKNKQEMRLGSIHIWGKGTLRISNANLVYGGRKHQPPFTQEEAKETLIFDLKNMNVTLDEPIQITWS
UniProt P23739, 1-1013 limits assumed: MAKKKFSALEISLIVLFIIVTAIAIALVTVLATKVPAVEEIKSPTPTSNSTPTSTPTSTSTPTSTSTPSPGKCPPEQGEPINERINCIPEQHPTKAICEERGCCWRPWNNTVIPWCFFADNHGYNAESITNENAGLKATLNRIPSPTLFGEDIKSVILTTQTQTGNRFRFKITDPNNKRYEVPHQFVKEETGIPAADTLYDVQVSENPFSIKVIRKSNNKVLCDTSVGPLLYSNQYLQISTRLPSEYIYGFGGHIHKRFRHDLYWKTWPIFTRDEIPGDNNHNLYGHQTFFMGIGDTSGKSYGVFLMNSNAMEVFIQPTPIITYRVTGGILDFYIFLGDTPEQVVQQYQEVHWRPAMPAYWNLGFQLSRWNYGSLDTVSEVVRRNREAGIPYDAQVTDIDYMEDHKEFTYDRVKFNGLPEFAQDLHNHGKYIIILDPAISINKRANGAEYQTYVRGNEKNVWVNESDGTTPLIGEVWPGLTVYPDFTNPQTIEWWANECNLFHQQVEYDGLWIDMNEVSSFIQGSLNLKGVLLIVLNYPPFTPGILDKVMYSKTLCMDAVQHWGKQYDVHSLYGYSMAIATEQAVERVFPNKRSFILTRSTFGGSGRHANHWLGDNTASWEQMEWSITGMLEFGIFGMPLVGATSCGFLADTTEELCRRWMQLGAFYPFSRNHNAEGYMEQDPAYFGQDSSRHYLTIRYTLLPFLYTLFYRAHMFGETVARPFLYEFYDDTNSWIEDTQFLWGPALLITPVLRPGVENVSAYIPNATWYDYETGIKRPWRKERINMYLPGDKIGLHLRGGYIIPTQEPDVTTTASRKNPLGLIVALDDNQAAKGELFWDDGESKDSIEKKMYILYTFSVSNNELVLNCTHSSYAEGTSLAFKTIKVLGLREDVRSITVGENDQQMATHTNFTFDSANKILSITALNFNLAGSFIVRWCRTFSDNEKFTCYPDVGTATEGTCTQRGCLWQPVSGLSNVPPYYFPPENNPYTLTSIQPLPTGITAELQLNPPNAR

Target: Sucrase-isomaltase, intestinal (Rattus norvegicus, UniProt P23739)
Assay: Inhibition of rat intestinal sucrase using p-nitrophenyl-alpha-d-glucopyranoside as substrate incubated for 10 mins prior to substrate addition measured after 5 mins by spectrophotometry

- IC50: < 50 µM
SMILES: C[C@H]1O[C@H](O[C@H]2[C@H](O)[C@@H](O)[C@@H](O[C@H]3[C@H](O)[C@@H](O)C(O)O[C@@H]3CO)O[C@@H]2CO)[C@H](O)[C@@H](O)[C@@H]1N[C@H]1C=C(CO)[C@@H](O)[C@H](O)[C@H]1O (stereo partly specified) [ACARBOSE]
